Data reported in patent US20220133694A1, “PHARMACEUTICAL USE” (Novartis AG, priority 2015, published 2022).

Tested on: heart failure patients (NYHA class II-IV) with reduced ejection fraction
Details: for proportion of patients who achieved the target dose of LCZ696 200 mg bid without any dose adjustment or interruption over 12 weeks: across both run-in and randomized periods; for rate of treatment success when up-titrated more gradually (6 weeks versus 3 weeks), in words: low dose / low RAAS stratum (naive or equivalent to <10 mg enalapril/day)

## trisodium [3-((1S,3R)-1-biphenyl-4-ylmethyl-3-ethoxycarbonyl-1-butylcarbamoyl) propionate-(S)-3′-methyl-2′-(pentanoyl{2″-(tetrazol-5-ylate)biphenyl-4′-ylmethyl}amino)butyrate]hemipentahydrate [LCZ696]
ACEI/ARB-naive patients
  difference between the uptitration regimens in the treatment success rate: no major difference
Based on total number of patients receiving at least one dose of study medication
  proportion of patients who achieved the target dose of LCZ696 200 mg bid without any dose adjustment or interruption over 12 weeks: 70%
Discontinuations due to non-AE reasons excluded
  proportion of patients who achieved the target dose of LCZ696 200 mg bid without any dose adjustment or interruption over 12 weeks: 76%
All patients initiated on treatment
  patients who achieved and maintained the target dose of 200 mg twice daily without any dose interruption or down-titration over 12 weeks, in words: large majority
High RAAS stratum
  difference in treatment success rate by rate of up-titration (3 weeks vs. 6 weeks): no difference
High RAAS stratum (prior high levels of RAAS therapy), 3 or 6 weeks up-titration
  treatment success rate (achieved target dose 200 mg bid, no dose adjustment/interruption over 12 weeks): 83%
Low RAAS stratum
  difference in treatment success rate, gradual up-titration over 6 weeks compared to condensed up-titration over 3 weeks: 10%
Low RAAS stratum (ACEI/ARB naive or prior low levels of RAAS therapy), up-titrated over 6 weeks
  treatment success rate (achieved target dose 200 mg bid, no dose adjustment/interruption over 12 weeks): 85%
Low RAAS stratum, up-titrated over 3 weeks
  treatment success rate (achieved target dose 200 mg bid, no dose adjustment/interruption over 12 weeks): 74%
  rate of treatment success when up-titrated more gradually (6 weeks versus 3 weeks), in words: higher
Listed as sacubitril and valsartan in a 1:1 molar ration
  rate of treatment success when up-titrated more gradually (6 weeks versus 3 weeks), in words: More patients
Randomized patients, excluding those who discontinued due to non-AE related reasons
  proportion of patients on the LCZ696 200 mg bid target dose for at least 2 weeks before study completion: 85%
Randomized patients, excluding those who discontinued due to non-AE related reasons, both regimens
  proportion of patients who achieved the target LCZ696 200 mg bid dose without any down-titration or dose interruption over the entire 12-week study period: 81%

Read-outs that look alike come from different tables or passages of the source.
